According to patent US11484595B2, “Carrier molecule compositions and related methods” (JYSK Skin Solutions PTE .LTD., priority 2014, dated 2022):

Assay: Transcutaneous flux through porcine skin grafts; receptor fluid read by spectrophotometer

## FFFIL VFGGGKKRPKPG [SK-1]
Absorbance compared with standards, micelle base, porcine skin grafts
  calculated transcutaneous flux of the biologically active molecules and carrier molecules: 1.8%
Porcine skin grafts 0.045-0.055 inches, n=5, single application in CETAPHIL moisturizer micelle base with alkaline phosphatase conjugate (150 kD) and salicylate, receptor fluid 0.9% NaCl collected 14-16 hours
  absorbance of receptor fluid (Table 2): 2.729
